AlphaSeq binding of Ab-14 heavy chain variants to a spike HR2 peptide

Data: MIT Lincoln Laboratory AlphaSeq set, Li et al. 2023, doi:10.1038/s41467-023-39022-2, as distributed in FLAb.

Binding partner: SARS-CoV-2 spike HR2 peptide, sequence PDVDLGDISGINAS.

Ab-14 is the parent antibody, in scFv form: VH, then a (GGGGS)3 linker, then VL. The light chain is unchanged in all variants.
VH: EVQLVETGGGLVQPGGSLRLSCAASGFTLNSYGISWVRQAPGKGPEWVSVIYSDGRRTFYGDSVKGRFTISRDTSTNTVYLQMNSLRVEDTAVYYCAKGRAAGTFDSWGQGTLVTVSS
VL: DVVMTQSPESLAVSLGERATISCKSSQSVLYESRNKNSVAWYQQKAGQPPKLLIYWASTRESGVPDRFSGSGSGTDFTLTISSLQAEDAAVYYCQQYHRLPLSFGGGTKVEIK

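Phage display of a naive human antibody library on the peptide gave the parent. The variants were designed computationally from a first round of random CDR variants and then made and measured. Their group label is 14H_Rand (Rand: our label for a block that the file lists under HC and that is probably the random mutants of the ten best first-round binders). The scFvs were displayed on barcoded MATa yeast, the peptide on MATalpha yeast. The frequency of each diploid, read from paired DNA barcodes, reflects how well the two displayed proteins bind. Each replicate has its own calibration line, from reference interactions of the BCL2 family. Mating was done six times.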

Each variant is given by its three heavy chain CDRs, as the data file delimits them; those of the parent are GFTLNSYGIS, VIYSDGRRTFYGDSVK, GRAAGTFDS.
Values are log10 of the apparent Kd in nM; lower means stronger binding.
The mean shown is taken over the replicates in which the pair was detected.
"ND" marks a missing value. The strain was present, yet no cells mated with the target were sequenced in that replicate, which points to weak or no binding.
Values of this round are not directly comparable with the first-round values of the same sequences.

CDR-H1 | CDR-H2 | CDR-H3 | replicates, log10 nM | mean, log10 nM | signal with controls
GFTLNSYGIS | VIYSDQRRTFYSDSVK | GRWGGTFFS | ND / ND / ND / ND / ND / ND | ND | 0 of 18
HFTLDSYGIS | VIYSDGRRTFYGDSVK | GRAAGTDLS | ND / ND / ND / ND / ND / ND | ND | 0 of 18
GFTLNEYGIS | VIYSDGRRWFYTDSVK | GRFHGTFDS | ND / ND / ND / ND / ND / ND | ND | 0 of 18
GFPLNSYGIS | VIYSDGIRTFYDDSVK | GQLYGTFDS | 1.10 / 2.40 / 0.18 / 1.72 / 1.07 / 0.89 | 1.23 | 2 of 18 (2.05)
GFTLNDYGIS | VIYSDGRRTQYIDSVK | GRAAGKFDS | ND / ND / ND / ND / ND / ND | ND | 0 of 18
GFTLNEYGIS | VIYSDGRRTFYTYSVK | GRFAGTFDS | ND / ND / ND / ND / ND / ND | ND | 0 of 18
GFTLNDYGIS | VIYSDGRRTFYGDTVK | GNAALTFIS | ND / ND / ND / ND / ND / ND | ND | 0 of 18
AFDLNSYGIS | VIYSDGRRTFYGDSVK | GRAAGWFNS | ND / ND / ND / ND / ND / ND | ND | 0 of 18
GFTLNEYGIS | VIYSDGRRTFYTDSVK | GRFAGTFGS | ND / ND / ND / ND / ND / ND | ND | 0 of 18
GFTLNQYGIS | VIYSDGRRTFYADSVK | GRAKGFFDS | ND / ND / ND / ND / ND / ND | ND | 0 of 18
GFTLNSYGIS | VIYSDGRVTFYDDSVK | GQLAGTFDS | ND / ND / ND / ND / ND / ND | ND | 0 of 18
GETTDSYGIS | VIYEDGRRTFEGDSVK | TRAAGTALS | ND / ND / ND / ND / ND / ND | ND | 0 of 18
GFTLRQYGIS | VIYSDGRRTFYGDSVK | GRAAVTFDQ | ND / ND / ND / ND / ND / ND | ND | 0 of 18
GFTLNEYGIS | VIYSDGRRTFYGDSVK | GRAAKTFKQ | ND / ND / ND / ND / ND / ND | ND | 0 of 18
GFTLNDYGIS | VIYSDGRRTFYGDKVK | ARALLTFES | ND / ND / ND / ND / ND / ND | ND | 0 of 18
GFDLNSYGIS | VIYSDGMRTFYGDSVK | GRAAGWFNS | ND / ND / ND / ND / ND / ND | ND | 0 of 18
GYTYNQYGIS | VIYSDGRRTEYSDSVK | GRAAGFFDS | ND / ND / ND / ND / ND / ND | ND | 0 of 18
GFTLNEYGIS | VIYSDCRRTFYTDAVK | GRFAGTFDS | ND / ND / ND / ND / ND / ND | ND | 0 of 18
GFTLNEYGIS | VIYSNGRRTFYGDSVK | GRAAVTFDQ | ND / ND / ND / ND / ND / ND | ND | 0 of 18
GNTGNSYGIS | VIYADGRRTMYGDSVK | GRAAGTNKS | ND / ND / ND / ND / ND / ND | ND | 0 of 18
GFTLNQYGIS | VIYSDGRRTFYSDSVK | GRPAGFFDS | ND / 3.20 / ND / 2.55 / ND / ND | 2.88 | 0 of 18
GFTLNDYGIS | VWYSDGRRTQMIDSVK | GRAAGTFDS | ND / ND / ND / ND / ND / ND | ND | 1 of 18 (1.16)
GFTLNEYGIS | VIYSDGRRTFYGDSEK | GRAAVTFDQ | ND / ND / ND / ND / ND / ND | ND | 0 of 18
GFTLNEYGIS | VIYSDGLRTMYGDSVK | GRKAVTFDQ | ND / ND / ND / ND / ND / ND | ND | 1 of 18 (2.83)
GFTLNSYGIS | VCYSDGRATFYSDSVK | YRAGGTFDS | ND / ND / ND / ND / ND / 1.94 | 1.94 | 1 of 18 (2.10)
GFTLNDYGDS | VIYSDGRRTQYIDSVK | GRAAGTFDS | ND / 2.55 / ND / ND / ND / ND | 2.55 | 0 of 18
GFTLNDYGIS | VPYSDGRRTFYGDSVK | GRAALTFIS | ND / ND / ND / ND / ND / ND | ND | 0 of 18
GFTLNQYGIS | VIYSDGRRTFYSMSVK | GKAAGFFDS | ND / ND / ND / ND / ND / ND | ND | 0 of 18
GFTLNSYGIS | VIYADGARTFYGDSVK | GRAAGTNKK | ND / ND / ND / ND / ND / ND | ND | 0 of 18
GFTLNDYCIS | VEYSDGRRTFYGDSVK | GREALCFIS | ND / ND / ND / ND / ND / ND | ND | 0 of 18
GFTLNQYGIS | VIYSDGRRTFYSDSVK | GRAMGFFDS | ND / ND / ND / ND / ND / ND | ND | 0 of 18
GNTLNKYGQS | VIYSDGRRTFYDDSVK | GQLAGTFDS | ND / ND / ND / ND / ND / ND | ND | 0 of 18
GFTLNSYGIS | VIMSDGLRTFYDDSVK | MQLAGTFDS | ND / ND / ND / ND / ND / ND | ND | 0 of 18
GFDLNSYGIS | VIYADGRRTFYGDSVK | GRAAGTNYS | ND / ND / ND / ND / ND / ND | ND | 0 of 18
GFTLNSYGYS | VITSDGRRTFYDDSVK | GQLSGTFDY | ND / ND / ND / ND / ND / ND | ND | 0 of 18
GFTSNSYGYS | VIYADGRRTFYGDSVK | GRQAGTNKS | ND / ND / ND / ND / ND / ND | ND | 0 of 18

From the list, the first 5 with no signal in any replicate:

{"CDR-H1": "GFTLNSYGIS", "CDR-H2": "VIYSDQRRTFYSDSVK", "CDR-H3": "GRWGGTFFS", "replicates, log10 nM": "ND / ND / ND / ND / ND / ND", "mean, log10 nM": "ND", "signal with controls": "0 of 18"}
{"CDR-H1": "HFTLDSYGIS", "CDR-H2": "VIYSDGRRTFYGDSVK", "CDR-H3": "GRAAGTDLS", "replicates, log10 nM": "ND / ND / ND / ND / ND / ND", "mean, log10 nM": "ND", "signal with controls": "0 of 18"}
{"CDR-H1": "GFTLNEYGIS", "CDR-H2": "VIYSDGRRWFYTDSVK", "CDR-H3": "GRFHGTFDS", "replicates, log10 nM": "ND / ND / ND / ND / ND / ND", "mean, log10 nM": "ND", "signal with controls": "0 of 18"}
{"CDR-H1": "GFTLNDYGIS", "CDR-H2": "VIYSDGRRTQYIDSVK", "CDR-H3": "GRAAGKFDS", "replicates, log10 nM": "ND / ND / ND / ND / ND / ND", "mean, log10 nM": "ND", "signal with controls": "0 of 18"}
{"CDR-H1": "GFTLNEYGIS", "CDR-H2": "VIYSDGRRTFYTYSVK", "CDR-H3": "GRFAGTFDS", "replicates, log10 nM": "ND / ND / ND / ND / ND / ND", "mean, log10 nM": "ND", "signal with controls": "0 of 18"}

In the paper, a design with two or fewer of six values counts as a poor binder.
Of ten entries with the parent sequence, four were seen in most replicates (averages 0.34 to 2.37), three in one and three in none, so single entries are noisy.
Empty control strains, which show no peptide, gave a signal in 1% of pairings with all heavy chain designs; the median was 2.08 and 95% of these signals were weaker than 0.84. No background was subtracted. For each scFv, signals with the empty controls are counted beside the result, with their mean in brackets.